Tested on: Rat striatal muscarinic receptors
Experiment: Agonist intrinsic activity: inhibition of forskolin-activated [3H]cAMP in dissociated rat striatum
Format: cell-based
From the text: Rat striatal muscarinic receptors are coupled to the inhibition of the conversion of adenosine triphosphate (ATP) to cyclic adenosine monophosphate (cAMP). This method is described in detail in D. J. Anderson and M. McKinney, Brain Res, 1988, 475:28-34. The ATP stores in dissociated rat striatum were labeled with [^3 H]adenine and [^3 H]-cAMP levels were elevated with 10 um forskolin. Muscarinic receptor activation with the agonist carbachol inhibits forskolin-activated levels of [^3 H]cAMP by about 40%. Most agonists stimulate this receptor-effector system with EC50 values in the range of 0.1-10 uM. Intrinsic activities (maximal responses relative to that of the full agonist carbachol) can thus be measured at 100 uM. Agonist activation of this biochemical response is expressed as percent activity measured at 100 uM relative to that of 100 uM carbachol.

C[N+](C)(C)CCOC(N)=O [carbachol]
Agonist character at central muscarinic receptor: full agonist | Inhibition of forskolin-activated levels of [3H]cAMP (10 um forskolin): about 40%
